{"sequences": {"note": "The chains behind the UniProt entries cited, without tags or fusion partners. Where a name states a change or a piece, a line headed by the entry shows the natural chain unless it says otherwise.", "UniProt P53341": "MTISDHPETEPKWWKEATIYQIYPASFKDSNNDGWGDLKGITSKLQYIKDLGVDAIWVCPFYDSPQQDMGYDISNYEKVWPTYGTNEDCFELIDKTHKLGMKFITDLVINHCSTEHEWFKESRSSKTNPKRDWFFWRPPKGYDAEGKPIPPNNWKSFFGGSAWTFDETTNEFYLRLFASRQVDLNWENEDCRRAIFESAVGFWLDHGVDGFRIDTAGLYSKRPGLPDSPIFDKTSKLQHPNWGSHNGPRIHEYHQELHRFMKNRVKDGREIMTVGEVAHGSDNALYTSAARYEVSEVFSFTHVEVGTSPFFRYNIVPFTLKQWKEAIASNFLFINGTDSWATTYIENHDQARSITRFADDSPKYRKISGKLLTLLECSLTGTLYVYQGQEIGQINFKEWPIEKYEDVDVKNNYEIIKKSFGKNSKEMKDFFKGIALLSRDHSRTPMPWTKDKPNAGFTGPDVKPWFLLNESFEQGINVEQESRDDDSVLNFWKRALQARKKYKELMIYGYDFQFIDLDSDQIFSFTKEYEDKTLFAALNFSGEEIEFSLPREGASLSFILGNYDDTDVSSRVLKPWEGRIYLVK"}, "source": "paper PMC10299727", "about": "“Identification and Isolation of α-Glucosidase Inhibitors from Siraitia grosvenorii Roots Using Bio-Affinity Ultrafiltration and Comprehensive Chromatography” (International Journal of Molecular Sciences, 2023)", "target": "T1, α-glucosidase (Saccharomyces cerevisiae, UniProt P53341)", "T1 construct": "purchased Sigma-Aldrich (Shanghai, China) G5003-100UN", "assay": "α-glucosidase inhibitory assay (pNPG substrate, absorbance at 405 nm)", "format": "biochemical", "settings": "isolated compounds; acarbose positive control", "method": "The α-glucosidase inhibitory activity of the S. grosvenorii root extracts was determined using a method mentioned previously, with some modifications to it. Briefly, the sample was dissolved in PBS containing 10% dimethyl sulfoxide. A mixture of the tested sample (50 μL, different concentrations) and α-glucosidase (20 μL, 0.2 U/mL) was placed in a 96-well microplate and incubated at 37 °C for 5 min. Next, 20 μL pNPG (1 mM) was added, and the mixture was further reacted for 30 min at 37 °C and terminated through the addition of […] solution (50 μL, […]). The percentage inhibition of α-glucosidase was determined by measuring the absorbance of the mixture at 405 nm and calculated by Equation (1):Inhibition (%) = [1 − (Ainhibitor − Ablank inhibitor)/(Acontrol − Acontrol blank)] × 100(1) where Ainhibitor, Ablank inhibitor, Acontrol, Acontrol blank are the absorbance values of the potential inhibitor and α-glucosidase, only the potential inhibitor without α-glucosidase, only α-glucosidase, and PBS buffer, respectively.", "data": [{"substance": "Cucurbitacin B [Compound 15]", "values": [{"measurement": "IC50", "result": "1510 ± 57", "unit": "µM"}]}]}
